Experiments:
HLA-A0201 = target: T1, HLA-A0201 (Homo sapiens, UniProt P04439, D140Y/D185E/D98H/E176V/E277Q/G131W/G231S/I119V/I121R/I166T/I218V/L300P/L318F/N151K/N90K/P208A/P217A/Q86G/Q94H/R138H/R169H/T345S); assay: Peptide binding assay (surface HLA-A2 on T2 cells, FACS)
T1 construct: stained by indirect immunofluorescence for surface HLA-A2; endogenous in cells; host or cells: T2 cells (human, TAP-deficient; ATCC CRL 1992)
Method: Peptide binding assay: 5×10^5 T2 cells were incubated overnight (o/n) in 96 well plates in 100 ml of RPMI 1640 medium with 5% boiled FCS (to destroy proteases) and varying concentrations of synthetic peptides. Wells containing T2 cells without peptides or known A2-binding peptides were used as negative and positive control, respectively. Following overnight incubation cells were washed and stained by indirect immunofluorescence for surface HLA-A2 with A-2 specific monoclonal antibodies HB54 and HB117 (American Type Culture Collection, ATCC). FACS analysis was performed on a Coulter Corporation flow cytometer (Haiteah, Fla.).

[1] = system: lymphocytes from HLA-A0201- donors; assay: Generation of allo-HLA-restricted CTL lines (in vitro stimulation); type: cell-based, human; conditions: in vitro stimulation of lymphocytes from different donors
Method: Generation of allo-HLA-restricted CTL lines. PBMC were separated from buffy coat packs using Ficoll gradient centrifugation and stained with monoclonal antibodies HB54 (anti-HLA-A2, B17) and HB117 (anti-HLA-A2, A28). A2-negative PBMC were used as responders. Peptide coated Drosophila cells transfected with HLA-A0201, human β2-microglobulin, B7.1 and ICAM-1 were used as initial stimulators. Drosophila cells were induced in 100 mM CuSO4 for 48 hours washed three times with medium and loaded with peptide at a concentration of 100 μM for 4 hours. Each well of 24 well plate received 2×10^6 responder PBMC and 2×10^5 stimulator cells in 2 ml T cell medium. On day 5 T cells were harvested and plated in fresh T cell medium at a density of 5×10^5 per well with the addition of 2×10^6 autologous irradiated PBMC as feeders, 2×10^5 irradiated peptide-coated T2 cells, 10% QS4120 culture supernatant (containing anti-CD4 antibodies) and 10 U/ml hu-rIL-2 (Boehringer). The cultures were restimulated weekly using T2 cells coated with the immunizing peptide as stimulators. After 2-3 cycles of stimulation the bulk cultures were cloned in 96 well plates at a density of 1, 10 and 30 cells per well. 10^4 peptide-coated T2 cells, 2×10^5 HLA-A2 negative PBMC feeders and 2 U/ml IL-2 were added to each well. […]

RMFPNAPYL [WT126-34]
binding to HLA-A0201 class I molecules (HLA-A0201): binds | immunogenicity (induction of peptide-specific, HLA-A0201-restricted CTL) [1]: highly immunogenic

Source: patent US8529904B2, “Immunotherapeutic methods using epitopes of WT-1 and GATA-1” (Ganymed Pharmaceuticals AG, priority 1998, dated 2013)
